HCMV NEC inh: cytomegalovirus nuclear egress complex inhibition; inhibition, % (concentration not given with the values); 190,000 tested, 0.15% active; HTRF UL50-UL53 interaction, normalized percent inhibition; in the data active means inhibition above about 27%, passing the limit was not always enough
GIV-Gai inh: blocks GIV peptide binding to rat Galpha-i3. P08753. Galpha-i3/FITC-GIV peptide fluorescence polarization, 90 min; stronger effect = lower value; scaled: aluminum fluoride 0%, vehicle 100%. percent of control (FP), % (concentration not given with the values). hit rate 0.42% among 210,000. AID 1224905;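 active means replicate mean at 85% of control or lower, very high polarization wells dropped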;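 further: wells of about 15 µL received 100 nL stock; the first replicate is given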
GIV Gai FP conf: GIV-Galpha-i3 inhibition, FP confirmation; fluorescence polarization, mP at 100 µM; shares compounds with GIV-Gai inh; AID 1259350; FITC-GIV peptide binding to Galphai3, fluorescence polarization; active compounds read low; 580 tested, 38% active;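 active means inhibition score of 15 or more, meaning 100 minus mean polarization as percent of control over three replicates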;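 further: lower mP means peptide displaced from Galphai3 so more inhibition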
GIV Gai AS conf: confirmation of inhibitors of GIV binding to human Galpha-i3 | shares compounds with GIV-Gai inh | AlphaScreen Galphai3-GIV binding, purified proteins, 90 min; active compounds read low | AlphaScreen counts at 100 µM | 580 tested, 39% active | AID 1259351;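 active means inhibition score at or above a set limit, where the score is 100 minus the three-replicate mean percent of control signal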
* = called active by the depositor; . = not tested or not shown. The list is not random: actives were taken first. Their share in the collection is about 0.46%.

Results follow in this order: GIV-Gai inh | GIV Gai AS conf | HCMV NEC inh | GIV Gai FP conf
> Cc1cc(C)n(Cc2ccc(C(=O)O)cc2)n1
 : . | . | -14 | .
> Cc1ccn(CCC(=O)O)n1
 : 103 | . | -24 | .
> COc1ccc(NC(=O)N2CCCN(c3ccc(=O)n(-c4ccccc4)n3)CC2)cc1OC
 : 103 | . | -53 | .
> Cc1cccc(NC(=O)C2CCCN(S(=O)(=O)c3cn(C(C)C)cn3)C2)n1 (stereo not drawn)
 : 102 | . | -10 | .
> CCn1c(C)c(CN2CCC(C(=O)N3CCCC3)CC2)c2ccccc21
 : 102 | . | . | .
> CCn1c2c(c3ccccc31)CN(C(=O)C1CCC1)CC2
 : 51* | 14471* | . | 20*
> Cn1c(=O)c(C(=O)N2CCN(c3ccccc3)CC2)nc2ccccc21
 : 105 | . | . | .
> Cc1ccc(C(=O)O)cc1Nc1nc2ccccc2n2cnnc12
 : 76* | 18787* | -3 | 43*
> CCOC(=O)c1ccc(Nc2nc3ccccc3n3cnnc23)cc1
 : 103 | . | 0 | .
> CSc1nc2ccc(NC(=O)c3cccc(Cl)c3)cc2s1
 : . | . | -26 | .
> Cc1onc(-c2ccccc2)c1C(=O)ON=C1C2CC3CC(C2)CC1C3
 : 101 | . | -23 | .
> CC(=O)Nc1cc2nc3[nH]c(=S)[nH]c(=O)c3nc2cc1C
 : 109 | . | -132 | .
> CCCCCCn1c(=O)[nH]c2nc3cc(N)c(C)cc3nc2c1=O
 : 111 | . | -39 | .
> CC(=O)Nc1cc2nc3[nH]c(=O)n(C)c(=O)c3nc2cc1C
 : 69* | 35695 | -42 | 52
> Cc1cc2nc3c(=O)n(C)c(=O)[nH]c3nc2cc1N=CN(C)C
 : 88 | 26021* | -26 | 12*
> COc1ccc(Cn2ccc3nc(C)c(C(=O)Nc4cc(OC)cc(OC)c4)cc3c2=O)cc1
 : 104 | . | -19 | .
> CCc1cccc(NC(=O)c2cc3c(=O)n(Cc4ccc(OC)cc4)ccc3nc2C)c1
 : 88 | 34190 | . | 79
> CCN1C(=O)c2ccccc2S(=O)c2ccc(C(=O)NCCC3=CCCCC3)cc21 (stereo not drawn)
 : 113 | . | 10 | .
> CCOC(=O)N1CCC(NCc2ccco2)CC1
 : 107 | . | -5 | .
> CCN(CC)c1ccc2c(c1)CCCN2
 : 53* | 11170* | -16 | 63
> O=S(=O)(c1ccc2c(c1)CCCN2)N1CCCCC1
 : . | . | -33 | .
> Cn1c(CNC(=O)c2ccco2)nnc1SCC(=O)N1N=C(c2ccc(Br)cc2)CC1c1ccc(F)cc1 (stereo not drawn)
 : 107 | . | . | .

Some of the entries so far, as labelled records:
Cn1c(=O)c(C(=O)N2CCN(c3ccccc3)CC2)nc2ccccc21
  GIV-Gai inh: 105
  GIV Gai AS conf: .
  HCMV NEC inh: .
  GIV Gai FP conf: .
Cc1ccc(C(=O)O)cc1Nc1nc2ccccc2n2cnnc12
  GIV-Gai inh: 76*
  GIV Gai AS conf: 18787*
  HCMV NEC inh: -3
  GIV Gai FP conf: 43*
CCOC(=O)c1ccc(Nc2nc3ccccc3n3cnnc23)cc1
  GIV-Gai inh: 103
  GIV Gai AS conf: .
  HCMV NEC inh: 0
  GIV Gai FP conf: .

Bioassay records (PubChem BioAssay)
